The entries are a selection whose mix differs from that of the whole data set. The source made the active and inactive calls. No stated cut-off is given here; in the data, active means inhibition above about 37%; inactive means the rest.

Sequences of proteins named here, by UniProt entry; tags and fusion partners are left off.
UniProt P63165, whole entry, looked up: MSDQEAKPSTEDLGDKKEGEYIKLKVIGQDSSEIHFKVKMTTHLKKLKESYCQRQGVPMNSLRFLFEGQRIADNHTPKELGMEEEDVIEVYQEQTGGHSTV

A word on the inhibition: it is the drop in the measured response relative to a control, in per cent.

For this experiment, the target named is Small ubiquitin-related modifier 1 (Homo sapiens) (UniProt P63165). In words: modulators of SUMO1 protein-protein interactions, primary screen, biochemical, uHTS (AID 602429). Particulars: SUMO1 binding to a labelled peptide, TR-FRET, 1 h; at 20 µM; active compounds read high. For orientation: In TR-FRET formats the signal depends on donor and acceptor labels being close together.
Consider `Cc1ccc(NCCc2c([N+](=O)[O-])cc([N+](=O)[O-])cc2[N+](=O)[O-])cc1`, for which the inhibition is inactive: -29.2%. For `Nc1cccc2c([As](=O)(O)O)cccc12`, the inhibition was inactive: 2.4%.

As for `CCCOP(=S)(Nc1nc(N)cc(=O)[nH]1)OCCC`, the inhibition was inactive: -4.9%.

For `CCOP(=O)(Nc1cccc2ccccc12)OCC`, the inhibition is inactive: -2.05%.

For the molecule `COc1cc(C2NCCC3(OCCO3)C2(C)C)cc(OC)c1OC` (stereo not given), the inhibition was inactive: -3.8%.

Turning to `O=C(OC1CN2CCC1CC2)c1ccc(Cl)cc1` (stereo not given), the inhibition was inactive: 2.82%. In the case of `CS(=O)(=O)c1ccc(Cl)c(NC(=O)COC(=O)C(O)(c2ccccc2)c2ccccc2)c1` it was inactive: -3.03%. In the case of `COc1cc(C(=O)NCC2(N3CCOCC3)CCCCC2)cc(Cl)c1OC(C)C` it was inactive: 0.816%; in that of `O=[As](O)(O)c1cccnc1`, inactive: 5.73%. For the molecule `O=[As](O)(c1cccc(O)c1)c1cccc(O)c1`, the inhibition was inactive: -0.956%. Take `Cc1cccc(OCC(=O)OC2CN3CCC2CC3)c1` (stereo not given): the inhibition is inactive: -3.41%. In the case of `NC(=O)Nc1ccc([As](=O)(O)O)cc1` it was inactive: 8.2%. As for `CCOP1(=S)c2c(C)nn(CCC#N)c2N=C(c2ccc(F)cc2)N1C` (stereo not given), the inhibition was inactive: 1.19%. The same measure for `CN(C(=O)Cc1ccccc1)[C@@H]1CC[C@]2(CCCO2)C[C@H]1N1CCCC1`: inactive: -2.6%; for `N#CCCN(C(=O)COC(=O)C(O)(c1ccccc1)c1ccccc1)c1ccc(F)cc1`: inactive: 1.51%.

For `CN(C(=O)Cc1ccc(Cl)c(Cl)c1)[C@H]1CC[C@@]2(CCCO2)C[C@@H]1N1CCCC1`, the inhibition was inactive: 0.394%.

As to `CN(C)C(=O)c1cc([N+](=O)[O-])cc2c1-c1c(cc([N+](=O)[O-])cc1[N+](=O)[O-])C2=O`, the inhibition was inactive: -34.6%. `O=[N+]([O-])c1ccc2c(c1)nnn2O`: the inhibition was inactive: -17.8%. In the case of `O=P(Nc1nccs1)(c1ccccc1)c1nc2ccccc2s1` (stereo not given), the inhibition is inactive: 5.61%.

Consider `O=P(Nc1nccs1)(Oc1ccccc1)Oc1ccccc1`, for which the inhibition was inactive: 1.67%. Turning to `CCOP1(=S)c2c(C)nn(CCC#N)c2N=C(c2ccccc2F)N1C` (stereo not given), the inhibition was inactive: 1.52%. In the case of `CS(=O)(=O)c1cc([N+](=O)[O-])c2no[n+]([O-])c2c1` it was inactive: -28.2%; in that of `O=C(O)COc1ccc([As](=O)(O)O)cc1[N+](=O)[O-]`, inactive: -5.7%; in that of `Nc1ccccc1[As](=O)(O)c1ccccc1`, inactive: -6.96%. `Cc1ccc(S(=O)(=O)N(CCCN)CCCc2c(C)nc(N)[nH]c2=O)cc1`: the inhibition is inactive: -14.9%.

For the molecule `O=P1(Nc2ncccn2)COc2ccccc2OC1`, the inhibition was inactive: 1.6%. In the case of `Nc1cccc([As](=O)(O)c2ccccc2)c1` it was inactive: 2.22%; in that of `NS(=O)(=O)c1cccc(NC(=O)COC(=O)C(O)(c2ccccc2)c2ccccc2)c1`, inactive: 9.82%; in that of `O=P1(Nc2ccc(Br)cn2)COc2ccccc2OC1`, inactive: 2.59%. For the molecule `Cc1ccc(OCC(=O)OC2CN3CCC2CC3)cc1` (stereo not given), the inhibition is inactive: 0.0993%. Turning to `O=[As](O)(c1cccs1)c1cccs1`, the inhibition is inactive: 0.419%. With `Cc1ccc(C(=O)OC2CN3CCC2CC3)cc1` (stereo not given), the inhibition is inactive: -0.195%.

For `CC1CCC(C(C)C)C(OP(=O)(Nc2ccccn2)c2ccccc2)C1` (stereo not given), the inhibition is inactive: 13.5%. In the case of `Cc1nn(-c2ccccc2)c2c1P(=O)(N1CCOCC1)N(C)C(c1ccccc1)=N2` (stereo not given) it was inactive: -4.78%; in that of `CN(C)C1(CNC(=O)c2ccc(S(C)(=O)=O)cc2)CCCCC1`, inactive: -0.451%. In the case of `CCCC1OP(=O)(Nc2ccccc2)OCC1CC` (stereo not given) it was inactive: -1.1%.

In the case of `O=C(/C=C/c1ccccc1)OC1CN2CCC1CC2` (stereo not given), the inhibition was inactive: -6.95%.

Consider `COc1ccccc1CNC(=O)COC(=O)C(O)(c1ccccc1)c1ccccc1`, for which the inhibition was inactive: 2.66%.

Regarding `CN(C(=O)Cc1ccc(Cl)c(Cl)c1)[C@@H]1CCCC[C@H]1N1CCCC1`, the inhibition was inactive: 3.16%. The same measure for `CC(C)/C=N\N=C(\N)N[N+](=O)[O-]`: inactive: -1.5%; for `CC1(CBr)Cn2c(nc3ccccc3c2=O)S1` (stereo not given): inactive: -0.756%. In the case of `CCOP(=O)(NC(=NC(C)c1ccccc1)NC(C)c1ccccc1)OCC` (stereo not given) it was inactive: -0.251%; in that of `CCC1=CC2Cc3nc4ccc(Cl)cc4c(N)c3C(C1)C2` (stereo not given), inactive: 0.0721%; in that of `O=P1(Nc2ccccn2)COc2ccccc2OC1`, inactive: -0.255%. In the case of `CN(CCCl)Cc1cc(Cl)c(NC2=NCCN2)c(Cl)c1` it was inactive: -23.3%; in that of `CCOP(=O)(Nc1ccc(C)cn1)OCC`, inactive: 2.95%; in that of `CC(C)(C)C(=O)NC(Sc1ncccn1)C(Cl)(Cl)Cl` (stereo not given), inactive: 5.63%. In the case of `Clc1n[nH]nc1-c1nn[nH][15n]1`, the inhibition was inactive: 0.592%. As for `O=P1(N(CCCl)CCCl)NCCC(C(F)(F)F)O1` (stereo not given), the inhibition is inactive: 0.239%. `CSc1ccc(Nc2c([N+](=O)[O-])cc([N+](=O)[O-])cc2[N+](=O)[O-])cc1`: the inhibition is inactive: -49%. Regarding `O=C(OC1CN2CCC1CC2)c1cccc([N+](=O)[O-])c1` (stereo not given), the inhibition is inactive: -28.8%. The same measure for `CCOC(=O)c1ccc(NC(=O)C(C)(CCl)SC)cc1` (stereo not given): inactive: 6.33%. In the case of `CCC(C)N(CC(C)C)C(=S)SC(NC(C)=O)C(Cl)(Cl)Cl` (stereo not given) it was inactive: -0.718%; in that of `COC(=O)C1(C)COP(=O)(N2CCCC2)OC1` (stereo not given), inactive: 3.09%; in that of `COP1(=S)c2c(C)nn(CCC#N)c2N=C(c2ccc(F)cc2)N1C` (stereo not given), inactive: -1.33%. Regarding `O=C(O)C(=O)c1ccc(N(CCCl)CCCl)cc1`, the inhibition is inactive: 0.992%. With `O=C(Nc1ccncc1[N+](=O)[O-])c1ccc([N+](=O)[O-])cc1[N+](=O)[O-]`, the inhibition was inactive: -39%.

For `O=C(COc1ccccc1)OC1CN2CCC1CC2` (stereo not given), the inhibition was inactive: 0.93%. As for `CCOC(=O)Nc1cccc([As](=O)(O)O)c1`, the inhibition was inactive: -0.183%.

For the molecule `Cc1cc(SC(NC=O)C(Cl)(Cl)Cl)ncn1` (stereo not given), the inhibition was inactive: 0.78%. In the case of `O=P(Nc1ccccn1)(c1cccc2ccccc12)c1cccc2ccccc12` it was inactive: -6.98%; in that of `O=[N+]([O-])c1ccc(Nc2ccc(Oc3ccc([N+](=O)[O-])cc3[N+](=O)[O-])cc2)c([N+](=O)[O-])c1`, inactive: -4.36%.

Regarding `O=C(O)C(O)c1ccc(N(CCCl)CCCl)cc1` (stereo not given), the inhibition is inactive: 4.44%. Take `CCOC(=O)Nc1ccc([As](=O)(O)O)c(O)c1`: the inhibition was inactive: -3.74%. In the case of `CC1CCNP(=O)(N(CCCl)CCCl)O1` (stereo not given) it was inactive: -5.65%. As to `COP(=O)(OC)N1CC1c1ccccc1` (stereo not given), the inhibition is inactive: 1.69%.

On to `Cc1cc(SC(NC(=O)c2ccccc2)C(Cl)(Cl)Cl)nc(C(C)C)n1` (stereo not given), for which the inhibition was inactive: -2.02%.

Turning to `CCCCOc1ccc(C(=O)NCC2(N3CCCCC3)CCCCC2)cc1OC`, the inhibition was inactive: -3.15%.

For `ClCCSc1nnc(-c2cccnc2)o1`, the inhibition was inactive: 1.67%.

Regarding `CC(C)c1ccc(OP(=O)(Nc2ccccn2)Oc2ccccc2F)cc1` (stereo not given), the inhibition is inactive: 0.937%. In the case of `COC(=O)C1(C)COP(=O)(N2CCCCCC2)OC1` (stereo not given) it was inactive: 4.16%; in that of `O=[N+]([O-])c1cc([N+](=O)[O-])c(-c2ccn[nH]2)s1`, inactive: -4.94%.

As to `CCN(CC)C(=S)SC(NC=O)C(Cl)(Cl)Cl` (stereo not given), the inhibition is inactive: -1.9%. The same measure for `O=C(OC1CN2CCC1CC2)c1cccc2[nH]cnc12` (stereo not given): inactive: 2.43%; for `CC(C)NC(=O)NP(=O)(Oc1ccccc1)Oc1ccccc1`: inactive: -0.723%. In the case of `COc1cc(C(=O)NCC2(N3CCOCC3)CCCCC2)ccc1OCC(C)C` it was inactive: -3.91%; in that of `O=[N+]([O-])c1ccc(-c2cc([N+](=O)[O-])c(O)c([N+](=O)[O-])c2)cc1`, inactive: -16.8%. In the case of `O=[As](O)(c1ccc(O)cc1)c1ccccc1O` it was inactive: 7.83%. As for `C[As](=O)(O)c1cccc(C(=O)O)c1`, the inhibition is inactive: 2.08%. The same measure for `Cc1ccc(OP(=O)(Nc2ccc([N+](=O)[O-])cn2)Oc2ccc(C)cc2)cc1`: inactive: 1.17%. In the case of `[N-]=[N+]=NC1CCCCC1NC(=O)c1cc([N+](=O)[O-])cc([N+](=O)[O-])c1` (stereo not given), the inhibition is inactive: -49.2%. The same measure for `Cc1ccc2nc3c(c(C)c2c1)CC(C(Cl)Cl)S3` (stereo not given): inactive: 2.31%; for `O=[N+]([O-])c1cc(Oc2ccc([N+](=O)[O-])cc2C(F)(F)F)cc([N+](=O)[O-])c1`: inactive: -50.5%; for `COc1ccc(N/C(=N/P(=O)(N2CCOCC2)N2CCOCC2)N2CCOCC2)cc1`: inactive: -1.24%. In the case of `Cc1c2c(nc3ccccc13)SC(C(Cl)Cl)C2` (stereo not given) it was inactive: 0.359%. The same measure for `Cc1cc(=O)[nH]c(N[N+](=O)[O-])n1`: inactive: 0.283%. As to `O=C(OC1CN2CCC1CC2)C12CC3CC(CC(C3)C1)C2` (stereo not given), the inhibition is inactive: 1.41%. The same measure for `O=P1(N(CCCl)CCCl)Nc2ccccc2N1`: inactive: -2.24%; for `O=P1(N(CCCl)CCCl)OCCCN1CCCl` (stereo not given): inactive: 2.92%; for `COc1cc(I)ccc1[As](=O)(O)O`: inactive: 5.94%. Consider `COc1ccc2nc(NP(=O)(c3ccccc3)c3ccccc3)sc2c1`, for which the inhibition was inactive: -3.1%. The same measure for `O=C(NC(Sc1ccncn1)C(Cl)(Cl)Cl)c1ccccc1` (stereo not given): inactive: -1.53%; for `Oc1ccccc1CNc1ccccn1`: inactive: -1.29%. The same measure for `CC(C)CC(=O)NC(Sc1ccc(Cl)cc1)C(Cl)(Cl)Cl` (stereo not given): inactive: 4.79%; for `Nc1cc(N)c2nonc2c1[N+](=O)[O-]`: inactive: -12.3%; for `O=[N+]([O-])C1C(O)C(O)C([N+](=O)[O-])C(O)C1O` (stereo not given): inactive: 1.84%.

With `Cc1ccc(N/C(=N/P(=O)(N2CCOCC2)N2CCOCC2)N2CCOCC2)cc1`, the inhibition is inactive: 26%.

As to `CN(C(=O)Cc1ccc(Cl)c(Cl)c1)[C@H]1CCCC[C@H]1N1CCCC1`, the inhibition is inactive: 2.82%. In the case of `NC(=O)c1cc([N+](=O)[O-])cc([N+](=O)[O-])c1N` it was inactive: -23.3%; in that of `Clc1ccc(Cl)c(NC2=NCC(CBr)S2)c1` (stereo not given), inactive: -4.82%.
